Reference: PMC6715699 (2019)

Sequences of proteins named here, by UniProt entry; tags and fusion partners are left off. A change or cut given only in a name is not applied to a line headed by its entry.
UniProt Q06330: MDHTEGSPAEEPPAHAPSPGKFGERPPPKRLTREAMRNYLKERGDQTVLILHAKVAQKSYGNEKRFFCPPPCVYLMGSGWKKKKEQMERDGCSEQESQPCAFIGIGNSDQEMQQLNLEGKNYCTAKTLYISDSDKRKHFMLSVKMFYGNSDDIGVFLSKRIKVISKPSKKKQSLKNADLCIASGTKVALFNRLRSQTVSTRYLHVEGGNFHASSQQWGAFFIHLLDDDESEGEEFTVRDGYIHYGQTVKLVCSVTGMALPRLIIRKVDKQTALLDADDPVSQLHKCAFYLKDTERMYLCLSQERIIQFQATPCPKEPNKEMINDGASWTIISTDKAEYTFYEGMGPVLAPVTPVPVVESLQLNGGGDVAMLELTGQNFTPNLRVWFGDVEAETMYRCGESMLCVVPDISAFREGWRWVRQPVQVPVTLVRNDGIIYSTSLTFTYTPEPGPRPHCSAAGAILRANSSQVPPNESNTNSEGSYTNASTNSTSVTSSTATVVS

Molecular target: purified recombinant CSL (UniProt Q06330, labelled with a RED-NHS protein labelling kit (NanoTemper))
Assay: MST

Kd: 21 nM
B1: purified recombinant Ku70 (natural protein)
chain: MSGWESYYKTEGDEEAEEEQEENLEASGDYKYSGRDSLIFLVDASKAMFESQSEDELTPFDMSIQCIQSVYISKIISSDRDLLAVVFYGTEKDKNSVNFKNIYVLQELDNPGAKRILELDQFKGQQGQKRFQDMMGHGSDYSLSEVLWVCANLFSDVQFKMSHKRIMLFTNEDNPHGNDSAKASRARTKAGDLRDTGIFLDLMHLKKPGGFDISLFYRDIISIAEDEDLRVHFEESSKLEDLLRKVRAKETRKRALSRLKLKLNKDIVISVGIYNLVQKALKPPPIKLYRETNEPVKTKTRTFNTSTGGLLLPSDTKRSQIYGSRQIILEKEETEELKRFDDPGLMLMGFKPLVLLKKHHYLRPSLFVYPEESLVIGSSTLFSALLIKCLEKEVAALCRYTPRRNIPPYFVALVPQEEELDDQKIQVTPPGFQLVFLPFADDKRKMPFTEKIMATPEQVGKMKAIVEKLRFTYRSDSFENPVLQQHFRNLEALALDLMEPEQAVDLTLPKVEAMNKRLGSLVDEFKELVYPPDYNPEGKVTKRKHDNEGSGSKRPKVEYSEEELKTHISKGTLGKFTVPMLKEACRAYGLKSGLKKQELLEALTKHFQD
